How the values were obtained:
CRF2R = molecular target: T1, CRF2R (Homo sapiens, UniProt Q13324); assay: CRF2R agonist activation (EC50 / Emax), called comparative CRF binding; type: cell-based; settings: for Emax: read-out: CRF2R Emax
T1 sequence (Q13324 1-411): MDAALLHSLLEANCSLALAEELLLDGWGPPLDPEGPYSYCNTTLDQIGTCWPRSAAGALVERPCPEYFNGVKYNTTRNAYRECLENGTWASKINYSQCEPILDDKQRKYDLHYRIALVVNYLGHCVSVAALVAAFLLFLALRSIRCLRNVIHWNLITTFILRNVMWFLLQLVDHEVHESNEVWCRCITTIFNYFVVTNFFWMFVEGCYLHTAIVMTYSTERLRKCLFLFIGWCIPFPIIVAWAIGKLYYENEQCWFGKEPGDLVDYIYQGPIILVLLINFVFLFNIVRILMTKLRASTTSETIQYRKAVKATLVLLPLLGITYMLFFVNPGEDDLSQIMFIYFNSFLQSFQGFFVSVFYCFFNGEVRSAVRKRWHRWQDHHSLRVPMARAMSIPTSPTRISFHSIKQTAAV
From the text: (§1) The pharmacological activity and selectivity of the peptides of present invention can be determined using published test procedures. See, e.g, U.S. patent application Ser. No. 09/799,978 (now issued U.S. Pat. No. 6,670,140). Because CRF2R and CRF1R are homologous proteins, it is expected that a certain proportion of agonists for CRF2R will also function as agonists of CRF1R. As discussed above, activation of CRF1R induces activation of the HPA axis since increased corticosteroid production leads to skeletal muscle atrophy. In most cases in which an increase in muscle mass or function is desired, it is not desirable to activate the HPA axis.
(§2) Cell-based assays include the steps of contacting cells which express CRF1R or CRF2R with a peptide of the present invention or control and measuring activation of the CRFR by measuring the expression or activity of components of the CRFR signal transduction pathways.
(§3) For example, after contact with a peptide of the present invention, lysates of the cells can be prepared and assayed for induction of cAMP. cAMP is induced in response to Gαs activation. Because Gαs is activated by receptors other than CRFR and because a test peptide may be exerting its effect through CRFRs or by another mechanism, two control comparisons are relevant for determining whether the peptide increases levels of cAMP via activation of a CRFR. One control compares the cAMP level of cells contacted with the peptide and the cAMP level of cells contacted with a control compound (i.e., the vehicle in which the peptide is dissolved).
(§4) In one example, cAMP induction is measured with the use of DNA constructs containing the cAMP responsive element linked to any of a variety of reporter genes can be introduced into cells expressing CRFRs. Such reporter genes include, but are not limited to, chloramphenicol acetyltransferase (CAT), luciferase, glucuronide synthetase, growth hormone, fluorescent proteins (e.g., Green Fluorescent Protein), or alkaline phosphatase. Following exposure of the cells to the peptide, the level of reporter gene expression can be quantitated to determine the peptide's ability to increase cAMP levels and thus determine the peptide's ability to activate the CRFR.
(§5) In addition to using cells expressing full length CRFRs, cells can be engineered which express CRFRs containing the ligand binding domain of the receptor coupled to, or physically modified to contain, reporter elements or to interact with signaling proteins. For example, a wild type CRFR or CRFR fragment can be fused to a G-protein resulting in activation of the fused G-protein upon agonist binding to the CRFR portion of the fusion protein. […] In addition, alternative pathways for induction of the CRE reporter could be eliminated to reduce basal levels.

CRF1R = molecular target: T2, CRF1R (Homo sapiens, UniProt P34998); assay: CRF1R agonist activation (EC50 / Emax), called comparative CRF binding; type: cell-based
T2 sequence (P34998 24-415): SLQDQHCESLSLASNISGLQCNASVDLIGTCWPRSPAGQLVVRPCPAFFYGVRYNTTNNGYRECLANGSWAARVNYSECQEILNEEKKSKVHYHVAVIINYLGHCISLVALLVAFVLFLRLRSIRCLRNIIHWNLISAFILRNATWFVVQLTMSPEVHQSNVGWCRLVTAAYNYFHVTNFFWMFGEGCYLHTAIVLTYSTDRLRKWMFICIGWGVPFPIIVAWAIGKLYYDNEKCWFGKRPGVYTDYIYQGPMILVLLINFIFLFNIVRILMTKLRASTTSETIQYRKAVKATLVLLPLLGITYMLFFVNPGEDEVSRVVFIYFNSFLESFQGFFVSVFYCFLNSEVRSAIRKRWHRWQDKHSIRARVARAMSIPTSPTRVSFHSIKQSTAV
From the text: as §1, §2, §3, §4, §5

## CC[C@H](C)[C@H](NC(=O)[C@@H](NC(=O)[C@H](CC(=O)O)NC(=O)[C@H](CC(C)C)NC(=O)[C@H](CC(C)C)NC(=O)[C@H](CC(C)C)NC(=O)[C@H](CCCNC(=N)N)NC(=O)[C@H](CC(N)=O)NC(=O)[C@H](CC(N)=O)NC(=O)[C@H](C)NC(=O)[C@H](C)NC(=O)[C@H](CCC(N)=O)NC(=O)[C@H](CCC(N)=O)NC(=O)[C@H](CCCCN)NC(=O)[C@H](CCC(=O)O)NC(=O)[C@H](CCCCN)NC(=O)[C@H](CCC(=O)O)NC(=O)[C@H](CCC(N)=O)NC(=O)[C@H](CCCCN)NC(=O)[C@H](CCC(=O)O)NC(=O)[C@@H](NC(=O)[C@H](CCC(=O)O)NC(=O)[C@@H](NC(=O)[C@H](CCSC)NC(=O)[C@H](CCCCN)NC(=O)[C@H](CCCNC(=N)N)NC(=O)[C@H](CC(C)C)NC(=O)[C@H](CC(C)C)NC(=O)[C@H](Cc1c[nH]cn1)NC(=O)[C@@H](NC(=O)[C@@H]1CCCN1C(=O)[C@H](CC(C)C)NC(=O)[C@H](CC(=O)O)NC(=O)[C@@H](NC(=O)[C@H](CO)NC(=O)[C@@H](NC(=O)[C@@H]1CCCN1C(=O)[C@@H]1CCCN1C(=O)CNC(=O)[C@@H]1CCC(=O)N1)[C@@H](C)CC)[C@@H](C)CC)[C@@H](C)O)[C@@H](C)CC)[C@@H](C)CC)[C@@H](C)O)C(N)=O [compound 74]
CRF2R
  EC50: 55 nM
  Emax: 100%
CRF1R; CRF1R EC50
  EC50: > 100 nM
CRF1R; read-out: CRF1R Emax
  Emax: 7%

## CC[C@H](C)[C@H](NC(=O)[C@@H](NC(=O)[C@H](CC(=O)O)NC(=O)[C@H](CC(C)C)NC(=O)[C@H](CC(C)C)NC(=O)[C@H](CC(C)C)NC(=O)[C@H](CCCNC(=N)N)NC(=O)[C@H](CC(N)=O)NC(=O)[C@H](CC(N)=O)NC(=O)[C@H](C)NC(=O)[C@H](C)NC(=O)[C@H](CCC(N)=O)NC(=O)[C@H](CCC(N)=O)NC(=O)[C@H](CCCCN)NC(=O)[C@H](CCC(=O)O)NC(=O)[C@H](CCCCN)NC(=O)[C@H](CCC(=O)O)NC(=O)[C@H](CCC(N)=O)NC(=O)[C@H](CCCCN)NC(=O)[C@H](CCC(=O)O)NC(=O)[C@@H](NC(=O)[C@H](CCC(=O)O)NC(=O)[C@@H](NC(=O)[C@H](CCSC)NC(=O)[C@H](CCCCN)NC(=O)[C@H](CCCNC(=N)N)NC(=O)[C@H](CC(C)C)NC(=O)[C@H](CC(C)C)NC(=O)[C@H](CCC(N)=O)NC(=O)[C@H](CCC(N)=O)NC(=O)[C@@H]1CCCN1C(=O)[C@H](CC(C)C)NC(=O)[C@H](CC(=O)O)NC(=O)[C@@H](NC(=O)[C@H](CO)NC(=O)[C@@H](NC(=O)[C@@H]1CCCN1C(=O)[C@@H]1CCCN1C(=O)CNC(=O)[C@@H]1CCC(=O)N1)[C@@H](C)CC)[C@@H](C)CC)[C@@H](C)CC)[C@@H](C)CC)[C@@H](C)O)C(N)=O [compound 198]
CRF2R
  Emax: 100%

## CC[C@H](C)[C@H](NC(=O)[C@@H](NC(=O)[C@H](CC(=O)O)NC(=O)[C@H](CC(C)C)NC(=O)[C@H](CC(C)C)NC(=O)[C@H](CC(C)C)NC(=O)[C@H](CCCNC(=N)N)NC(=O)[C@H](CC(N)=O)NC(=O)[C@H](CC(N)=O)NC(=O)[C@H](C)NC(=O)[C@H](C)NC(=O)[C@H](CCC(N)=O)NC(=O)[C@H](CCC(N)=O)NC(=O)[C@H](CCCCN)NC(=O)[C@H](CCC(=O)O)NC(=O)[C@H](CCCCN)NC(=O)[C@H](CCC(=O)O)NC(=O)[C@H](CCC(N)=O)NC(=O)[C@H](CCCCN)NC(=O)[C@H](CCC(=O)O)NC(=O)[C@@H](NC(=O)[C@H](CCC(=O)O)NC(=O)[C@@H](NC(=O)[C@H](CCSC)NC(=O)[C@H](CCCCN)NC(=O)[C@H](CCCNC(=N)N)NC(=O)[C@H](CC(C)C)NC(=O)[C@H](CC(C)C)NC(=O)[C@@H](NC(=O)[C@H](CCC(N)=O)NC(=O)[C@@H]1CCCN1C(=O)[C@H](CC(C)C)NC(=O)[C@H](CC(=O)O)NC(=O)[C@@H](NC(=O)[C@H](CO)NC(=O)[C@@H](NC(=O)[C@@H]1CCCN1C(=O)[C@@H]1CCCN1C(=O)CNC(=O)[C@@H]1CCC(=O)N1)[C@@H](C)CC)[C@@H](C)CC)C(C)C)[C@@H](C)CC)[C@@H](C)CC)[C@@H](C)O)C(N)=O [compound 197]
CRF2R
  Emax: 94%

## CC[C@H](C)[C@H](NC(=O)[C@H](CCC(=O)O)NC(=O)[C@@H](NC(=O)[C@H](CCSC)NC(=O)[C@H](CCCCN)NC(=O)[C@H](CCCNC(=N)N)NC(=O)[C@H](CC(C)C)NC(=O)[C@H](CC(C)C)NC(=O)[C@H](CCC(N)=O)NC(=O)[C@H](Cc1ccc(O)cc1)NC(=O)[C@@H]1CCCN1C(=O)[C@H](CC(C)C)NC(=O)[C@H](CC(=O)O)NC(=O)[C@@H](NC(=O)[C@H](CO)NC(=O)[C@@H](NC(=O)[C@@H]1CCCN1C(=O)[C@@H]1CCCN1C(=O)CNC(=O)[C@@H]1CCC(=O)N1)[C@@H](C)CC)[C@@H](C)CC)[C@@H](C)CC)C(=O)N[C@@H](CCC(=O)O)C(=O)N[C@@H](CCCCN)C(=O)N[C@@H](CCC(N)=O)C(=O)N[C@@H](CCC(=O)O)C(=O)N[C@@H](CCCCN)C(=O)N[C@@H](CCC(=O)O)C(=O)N[C@@H](CCCCN)C(=O)N[C@@H](CCC(N)=O)C(=O)N[C@@H](CCC(N)=O)C(=O)N[C@@H](C)C(=O)N[C@@H](C)C(=O)N[C@@H](CC(N)=O)C(=O)N[C@@H](CC(N)=O)C(=O)N[C@@H](C)C(=O)N[C@@H](CCCNC(=N)N)C(=O)N[C@@H](CC(C)C)C(=O)N[C@@H](CC(C)C)C(=O)N[C@@H](C)C(=O)N[C@@H](CCCNC(=N)N)C(N)=O [compound 287]
CRF2R
  Emax: 100%

## CC[C@H](C)[C@H](NC(=O)[C@@H](NC(=O)[C@H](CC(=O)O)NC(=O)[C@H](CC(C)C)NC(=O)[C@H](CC(C)C)NC(=O)[C@H](CC(C)C)NC(=O)[C@H](CCCNC(=N)N)NC(=O)[C@H](CC(N)=O)NC(=O)[C@H](CC(N)=O)NC(=O)[C@H](C)NC(=O)[C@H](C)NC(=O)[C@H](CCC(N)=O)NC(=O)[C@H](CCC(N)=O)NC(=O)[C@H](CCCCN)NC(=O)[C@H](CCC(=O)O)NC(=O)[C@H](CCCCN)NC(=O)[C@H](CCC(=O)O)NC(=O)[C@H](CCC(N)=O)NC(=O)[C@H](CCCCN)NC(=O)[C@H](CCC(=O)O)NC(=O)[C@@H](NC(=O)[C@H](CCC(=O)O)NC(=O)[C@@H](NC(=O)[C@H](CCSC)NC(=O)[C@H](CCCCN)NC(=O)[C@H](CCCNC(=N)N)NC(=O)[C@H](CC(C)C)NC(=O)[C@H](CC(C)C)NC(=O)[C@H](C)NC(=O)[C@@H](NC(=O)[C@@H]1CCCN1C(=O)[C@H](CC(C)C)NC(=O)[C@H](CC(=O)O)NC(=O)[C@@H](NC(=O)[C@H](CO)NC(=O)[C@@H](NC(=O)[C@@H]1CCCN1C(=O)[C@@H]1CCCN1C(=O)CNC(=O)[C@@H]1CCC(=O)N1)[C@@H](C)CC)[C@@H](C)CC)[C@@H](C)O)[C@@H](C)CC)[C@@H](C)CC)[C@@H](C)O)C(N)=O [compound 301]
CRF2R
  Emax: 88.4%

From patent publication US6936585B2, “Corticotropin releasing factor 2 receptor agonists” (priority 2002, dated 2005)
